{"sequences": {"note": "Sequences of proteins named here, by UniProt entry; tags and fusion partners are left off. Residues count along the entry.", "UniProt P08311, 21-244 limits assumed": "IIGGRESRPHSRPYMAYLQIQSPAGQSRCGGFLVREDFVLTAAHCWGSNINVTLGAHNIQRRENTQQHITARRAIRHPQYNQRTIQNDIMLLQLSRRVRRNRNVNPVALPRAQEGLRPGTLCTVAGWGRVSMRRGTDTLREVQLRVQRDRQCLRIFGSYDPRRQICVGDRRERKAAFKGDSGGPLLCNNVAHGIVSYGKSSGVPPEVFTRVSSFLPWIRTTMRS"}, "source": "PubChem BioAssay AID581", "about": "(PCMD, 2007)", "note": "The list shows a part of the results, in another mix than the full data. Calls of active or inactive are those of the source.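 How the source made its calls: active means inhibition above 20% in each of the two mixture wells holding the compound; inactive means inhibition of 20% or less in either well.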", "data": [{"biological_target": "Cathepsin G (Homo sapiens) (UniProt P08311)", "experiment": "blockers of neutrophil cathepsin G protease – biochemical, pooled compound mixtures, AMC fluorescence, primary screen (AID 581);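 further: 0% = enzyme control without mixture and 100% = blank lacking enzyme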", "conditions": "purified enzyme, AMC-tetrapeptide fluorescence, active compounds read high, screened at 5 µM (by protocol)", "values": [{"smiles": "CCC(CO)(C(=O)OC1CN2CCC1CC2)c1ccccc1", "note": "(stereo unspecified)", "inhibition": "inactive: -3.1%"}, {"smiles": "CCOc1ncccc1C(=O)NCC1(N2CCOCC2)CCCCC1", "inhibition": "inactive: 11.6%"}, {"smiles": "Fc1ccccc1NC1CCN(Cc2ccccc2)CC1", "inhibition": "inactive: 7.55%"}, {"smiles": "N/C(=N\\O)c1c(N)no[n+]1[O-]", "inhibition": "inactive: 0.665%"}, {"smiles": "N#CC1(Nc2ccccc2)CCN(CCc2ccccc2)CC1", "inhibition": "inactive: 5.98%"}, {"smiles": "O=C(OC1CN2CCC1CC2)C1c2ccccc2Oc2ccccc21", "note": "(stereo unspecified)", "inhibition": "inactive: 8.44%"}]}]}
